Test results taken from patent US4916223A, “Substituted hexahydroarylquinolizines” (Merck & Co., Inc., priority 1989, dated 1990).

How the values were obtained:
central α2-adrenoceptors = assay: In vivo antagonism of clonidine-induced mydriasis; parameters: species or system rat (Sprague-Dawley); conditions: for Antagonism of Clonidine Induced Mydriasis (ED2X): anesthetized rats, pretreated 5 minutes before i.v. clonidine, dose causing doubling of clonidine ED50, N=4/group
Protocol: Administration of clonidine to rat produces mydriasis by an α2 -adrenergic mechanism in the central nervous system as reported by Koss et al., Naunyl-Schmiedeberg's Arch. […] Ophthal. […] Antagonism of the mydriatic action of clonidine was used as an in vivo test to examine the ability of the compounds to penetrate the central nervous system and antagonize α2 -adrenoceptors in the rat.
Adult male Sprague-Dawley rats (250-450 g) were anesthetized with chloral hydrate (120-160 mg/kg i.p.), and a femoral vein was cannulated for drug administration. Body temperature was maintained at 37° C.±0.5. The eye was illuminated using a light with green filters to provide added contrast to aid in visualization of the iris. Pupil diameter was measured using a dissecting microscope containing an ocular micrometer with a resolution of 0.1 mm.
Five minutes was allowed to elapse between successive doses of clonidine, and pupil diameter was determined immediately prior to the injection of the next dose of clonidine. The dose of clonidine required to cause 50% of the maximum increase in diameter of the pupil was determined for each rat, using logarithmic linear regression analysis. […] The potency of antagonists was expressed as ED2X values, i.e. the calculated dose of antagonist required to cause a doubling in the ED50 value for clonidine.

[1] = molecular target: T1, peripheral α2-adrenoceptors (Rattus norvegicus, UniProt P22909); assay: In vitro field-stimulated rat vas deferens test: antagonism of clonidine (Schild analysis, pA2); format: cell-based
T1 construct: isolated, field-stimulated rat vas deferens is utilized as an in vitro model; from tissue; host or cells: rat vas deferens (isolated, field-stimulated)
T1 sequence (P22909 1-465): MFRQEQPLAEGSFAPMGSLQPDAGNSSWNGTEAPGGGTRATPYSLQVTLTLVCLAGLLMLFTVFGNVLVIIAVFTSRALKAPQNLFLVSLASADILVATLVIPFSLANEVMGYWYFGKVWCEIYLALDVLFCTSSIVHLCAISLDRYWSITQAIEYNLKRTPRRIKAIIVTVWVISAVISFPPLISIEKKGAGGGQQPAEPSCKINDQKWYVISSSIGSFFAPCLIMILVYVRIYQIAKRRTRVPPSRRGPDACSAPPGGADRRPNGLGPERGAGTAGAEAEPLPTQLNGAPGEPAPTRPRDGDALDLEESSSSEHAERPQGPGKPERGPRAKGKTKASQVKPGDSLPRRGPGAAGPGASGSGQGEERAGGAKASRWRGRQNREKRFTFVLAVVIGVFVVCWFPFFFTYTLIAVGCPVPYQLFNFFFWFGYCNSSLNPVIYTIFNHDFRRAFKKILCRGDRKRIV
Excerpt: In the test, isolated, field-stimulated rat vas deferens is utilized as an in vitro model to determine the potency and selectivity of compounds toward the various α-adrenoceptor subtypes. Selective α2 -adrenoceptor agonists such as clonidine reduce the magnitude of neurogenic contractions in the peripheral smooth muscle by reducing the stimulated release of norepinephine through the activation of presynaptic α2 -adrenoceptors on the noradrenergic nerve terminals.
The vas deferens from rats weighing 250-350 grams were freed of connective and fatty tissue and suspended between two platinum electrodes in an organ bath under 0.5 gram tension. The organ bath contained Tyrode's solution which was bubbled with 5% CO2 and 95% O2 and stimulated with square wave pulses at 0.1 Hz, 0.3 msec in duration and supramaximal voltage (30-50 V). Contractile responses were recorded. α2 -Agonist drug (clonidine) was added cumulatively to the bath and EC50 values determined by regression analysis. […] Computation of the pA2 value was performed using the formula: pA2 =pAx +log (x-1), where pAx is the negative logarithm of the molar concentration of antagonist and x is the dose ratio of EC50 values for the agonist before and after addition of the antagonist.

[2] = molecular target: T1, peripheral α2-adrenoceptors; assay: Peripheral versus central α2-adrenoceptor selectivity, vas deferens compared with mydriasis data; conditions: relative to yohimbine

Compound | Antagonism of Clonidine Induced Mydriasis (ED2X) (central α2-adrenoceptors) | less potent in eliciting a response mediated by central α2-adrenoceptors (mydriasis data) (central α2-adrenoceptors; relative to yohimbine) | Kb ([1]; isolated field-stimulated rat vas deferens, agonist clonidine, antagonist at least 20 minutes contact) | higher affinity for α2-adrenoceptors than yohimbine ([1]; vas deferens data, relative to yohimbine) | more selective for the periphery than yohimbine [2]
CS(=O)(=O)NCCN1C(=O)NC[C@]12CCN1CCc3c(oc4ccccc34)[C@@H]1C2 [Arylquinolizine Compound A, (2R,12bS)-3'-(2-methanesulfonamidoethyl)-spiro-[1,3,4,6,7,12b-hexahydrobenzo[b]furo[2,3-a]quinolizin]-2,4'-imidazolidin-2'-one] | 18.0 mg/kg i.v. | 132 fold | 3.02 nM | seven | about 900 times
COC(=O)[C@@H]1[C@H]2C[C@H]3c4[nH]c5ccccc5c4CCN3C[C@@H]2CC[C@@H]1O [Yohimbine, reference compound] | 0.136 mg/kg i.v. |  |  |  | 
